Assays:
[1] = system: MCF7 human breast adenocarcinoma cells; assay: cell proliferation assay, MCF7; assay type: cell-based; details: Table 3 summary of most active compounds, listed as D-lyxose
Excerpt: (§1) In this Example, the warfarin neoglycosides of the invention were screened for anti-tumor activity in cell proliferation assays using the following tumor cells lines: A549—human lung adenocarcinoma; H1299—human lung adenocarcinoma (p53 null); HCT-15—human colorectal adenocarcinoma; HT-29—human colorectal adenocarcinoma; MCF7—human breast adenocarcinoma; NCI-H460—human lung adenocarcinoma; SF-268—human CNS adenocarcinoma; and SKOV-3—human ovarian adenocarcinoma.
(§2) All cell lines were maintained as previously reported (see Langenhan, J. M.; Peters, N. R.; Guzei, I. A.; Hoffmann, F. M.; Thorson, J. S. Proc. Natl. Acad. Sci. USA 2005, 102, 12305-12310, which is incorporated by reference herein). Cells were harvested using 0.25% trypsin and 0.1% EDTA and counted in a Cellometer Auto T4 cell counter (Nexcelom, Inc.) prior to dilution for assay plating. Cells were plated at a denity of 500 cells per well in 50 μL volumes in 384-well clear-bottom tissue culture plates (Corning-Costar, Inc.).
(§3) Compounds were added from the 384-well compound stock plates at a 1:100 dilution using a Biomek FX liquid handler equipped with a 384-channel head (Beckman Coulter, Inc.). […] Luminescence resulting from incubation with Calcein AM and EthD-1 was read using a Safire-2 microplate reader at the appropriate wavelengths. […] The luminescence of each plate was re-read to confirm the observed inhibition. […]

[2] = system: H1299 human lung adenocarcinoma (p53 null) cells; assay: cell proliferation assay, H1299; assay type: cell-based; details: Table 3 summary of most active compounds
Excerpt: as §1, §2, §3

Compound | IC50 [1] [µM] | IC50 ([2]; listed as D-lyxose) [µM] | IC50 ([2]; listed as L-ribose) [µM]
CON(C(C)CC(c1ccccc1)c1c(O)c2ccccc2oc1=O)C1OCC(O)C(O)C1O (mixture of isomers) [WARF Analog 6] | 28 | 28 | 
CON(C(C)CC(c1ccccc1)c1c(O)c2ccccc2oc1=O)C1OCC(O)C(O)C1O (mixture of isomers) [WARF Analog 25] |  |  | 35
